Test results: US10912763B2 (priority 2010, dated 2021)

Tested on: painful diabetic neuropathy
[1] = Study A, 40 μg once daily for 5 days
[2] = Study A, 120 μg once daily for 5 days
[3] = Study B, 80 μg once daily for 5 days
[4] = Study B, 200 μg once daily for 5 days
[5] = Study C, 100 μg once daily for 5 days

CN(C)[C@]1(c2ccccc2)CC[C@]2(CC1)OCCc1c3cc(F)ccc3[nH]c12
Effect compared with placebo (40 μg once daily, no differentiation from day 1 onwards): differentiated from placebo on day 5
Number of events leading to withdrawal (40 μg, Study A): 0
Number of serious TEAEs (40 μg, Study A): 0
Subjects with TEAEs (number) (40 μg, Study A): 21
Subjects with TEAEs (percent) (40 μg, Study A): (80.8%)
TEAEs (%) Back pain (40 μg, Study A): 7.7%
TEAEs (%) Bacteriuria (40 μg, Study A): 0%
TEAEs (%) Cold sweat (40 μg, Study A): 0%
TEAEs (%) Constipation (40 μg, Study A): 23.1%
TEAEs (%) Dizziness (40 μg, Study A): 26.9%
TEAEs (%) Dyspepsia (40 μg, Study A): 7.7%
TEAEs (%) ECG QT prolonged (40 μg, Study A): 0%
TEAEs (%) Fatigue (40 μg, Study A): 11.5%
TEAEs (%) Headache (40 μg, Study A): 34.6%
TEAEs (%) Hyperglycemia (40 μg, Study A): 0%
TEAEs (%) Nausea (40 μg, Study A): 26.9%
TEAEs (%) Oral discomfort (40 μg, Study A): 7.7%
TEAEs (%) Oropharyngeal Pain (40 μg, Study A): 0%
TEAEs (%) Peripheral oedema (40 μg, Study A): 7.7%
TEAEs (%) Pruritus (40 μg, Study A): 0%
TEAEs (%) Vision blurred (40 μg, Study A): 0%
TEAEs (%) Visual impairment (40 μg, Study A): 0%
TEAEs (%) Vomiting (40 μg, Study A): 0%
Total number of TEAEs (40 μg, Study A): 65
Total number of TEAEs, at least possibly related (in brackets) (40 μg, Study A): (39)
Mean daily pain intensity change from baseline, difference to placebo (80 μg to 200 μg once daily for 5 days (except the 120 μg group)): statistically significant differences to placebo
Number of events leading to withdrawal (80 μg, Study B): 0
Number of serious TEAEs (80 μg, Study B): 0
Subjects with TEAEs (number) (80 μg, Study B): 16
Subjects with TEAEs (percent) (80 μg, Study B): (69.6%)
TEAEs (%) Back pain (80 μg, Study B): 0%
TEAEs (%) Bacteriuria (80 μg, Study B): 8.7%
TEAEs (%) Cold sweat (80 μg, Study B): 8.7%
TEAEs (%) Constipation (80 μg, Study B): 0%
TEAEs (%) Dizziness (80 μg, Study B): 26.1%
TEAEs (%) Dyspepsia (80 μg, Study B): 4.3%
TEAEs (%) ECG QT prolonged (80 μg, Study B): 8.7%
TEAEs (%) Fatigue (80 μg, Study B): 4.3%
TEAEs (%) Headache (80 μg, Study B): 13.0%
TEAEs (%) Hyperglycemia (80 μg, Study B): 8.7%
TEAEs (%) Nausea (80 μg, Study B): 13.0%
TEAEs (%) Oral discomfort (80 μg, Study B): 0%
TEAEs (%) Oropharyngeal Pain (80 μg, Study B): 0%
TEAEs (%) Peripheral oedema (80 μg, Study B): 0%
TEAEs (%) Pruritus (80 μg, Study B): 0%
TEAEs (%) Vision blurred (80 μg, Study B): 4.3%
TEAEs (%) Visual impairment (80 μg, Study B): 0%
TEAEs (%) Vomiting (80 μg, Study B): 4.3%
Total number of TEAEs (80 μg, Study B): 53
Total number of TEAEs, at least possibly related (in brackets) (80 μg, Study B): (24)
Number of events leading to withdrawal (100 μg, Study C): 0
Number of serious TEAEs (100 μg, Study C): 0
Subjects with TEAEs (number) (100 μg, Study C): 27
Subjects with TEAEs (percent) (100 μg, Study C): (73%)
TEAEs (%) Back pain (100 μg, Study C): 0%
TEAEs (%) Bacteriuria (100 μg, Study C): 10.8%
TEAEs (%) Cold sweat (100 μg, Study C): 2.7%
TEAEs (%) Constipation (100 μg, Study C): 16.2%
TEAEs (%) Dizziness (100 μg, Study C): 18.9%
TEAEs (%) Dyspepsia (100 μg, Study C): 5.4%
TEAEs (%) ECG QT prolonged (100 μg, Study C): 0%
TEAEs (%) Fatigue (100 μg, Study C): 13.5%
TEAEs (%) Headache (100 μg, Study C): 8.1%
TEAEs (%) Hyperglycemia (100 μg, Study C): 2.7%
TEAEs (%) Nausea (100 μg, Study C): 13.5%
TEAEs (%) Oral discomfort (100 μg, Study C): 0%
TEAEs (%) Oropharyngeal Pain (100 μg, Study C): 5.6%
TEAEs (%) Peripheral oedema (100 μg, Study C): 0%
TEAEs (%) Pruritus (100 μg, Study C): 10.8%
TEAEs (%) Vision blurred (100 μg, Study C): 2.7%
TEAEs (%) Visual impairment (100 μg, Study C): 2.7%
TEAEs (%) Vomiting (100 μg, Study C): 13.5%
Total number of TEAEs (100 μg, Study C): 91
Total number of TEAEs, at least possibly related (in brackets) (100 μg, Study C): (52)
Number of events leading to withdrawal (120 μg, Study A): 0
Number of serious TEAEs (120 μg, Study A): 0
Subjects with TEAEs (number) (120 μg, Study A): 17
Subjects with TEAEs (percent) (120 μg, Study A): (65.4%)
TEAEs (%) Back pain (120 μg, Study A): 0%
TEAEs (%) Bacteriuria (120 μg, Study A): 0%
TEAEs (%) Cold sweat (120 μg, Study A): 0%
TEAEs (%) Constipation (120 μg, Study A): 7.7%
TEAEs (%) Dizziness (120 μg, Study A): 23.1%
TEAEs (%) Dyspepsia (120 μg, Study A): 0%
TEAEs (%) ECG QT prolonged (120 μg, Study A): 3.8%
TEAEs (%) Fatigue (120 μg, Study A): 3.8%
TEAEs (%) Headache (120 μg, Study A): 23.1%
TEAEs (%) Hyperglycemia (120 μg, Study A): 3.8%
TEAEs (%) Nausea (120 μg, Study A): 23.1%
TEAEs (%) Oral discomfort (120 μg, Study A): 0%
TEAEs (%) Oropharyngeal Pain (120 μg, Study A): 0%
TEAEs (%) Peripheral oedema (120 μg, Study A): 3.8%
TEAEs (%) Pruritus (120 μg, Study A): 0%
TEAEs (%) Vision blurred (120 μg, Study A): 0%
TEAEs (%) Visual impairment (120 μg, Study A): 0%
TEAEs (%) Vomiting (120 μg, Study A): 7.7%
Total number of TEAEs (120 μg, Study A): 54
Total number of TEAEs, at least possibly related (in brackets) (120 μg, Study A): (36)
Number of events leading to withdrawal (200 μg, Study B): 0
Number of serious TEAEs (200 μg, Study B): 0
Subjects with TEAEs (number) (200 μg, Study B): 19
Subjects with TEAEs (percent) (200 μg, Study B): (82.6%)
TEAEs (%) Back pain (200 μg, Study B): 0%
TEAEs (%) Bacteriuria (200 μg, Study B): 0%
TEAEs (%) Cold sweat (200 μg, Study B): 4.3%
TEAEs (%) Constipation (200 μg, Study B): 4.3%
TEAEs (%) Dizziness (200 μg, Study B): 34.8%
TEAEs (%) Dyspepsia (200 μg, Study B): 0%
TEAEs (%) ECG QT prolonged (200 μg, Study B): 0%
TEAEs (%) Fatigue (200 μg, Study B): 21.7%
TEAEs (%) Headache (200 μg, Study B): 17.4%
TEAEs (%) Hyperglycemia (200 μg, Study B): 0%
TEAEs (%) Nausea (200 μg, Study B): 39.1%
TEAEs (%) Oral discomfort (200 μg, Study B): 0%
TEAEs (%) Oropharyngeal Pain (200 μg, Study B): 0%
TEAEs (%) Peripheral oedema (200 μg, Study B): 0%
TEAEs (%) Pruritus (200 μg, Study B): 0%
TEAEs (%) Vision blurred (200 μg, Study B): 13.0%
TEAEs (%) Visual impairment (200 μg, Study B): 8.7%
TEAEs (%) Vomiting (200 μg, Study B): 13.0%
Total number of TEAEs (200 μg, Study B): 91
Total number of TEAEs, at least possibly related (in brackets) (200 μg, Study B): (76)
Typical adverse events expected from μ-opioid receptor agonists (40 to 200 μg once daily): starting to be present only at the top dose of 200 μg
Change from overall baseline (pain intensity, NRS), ANCOVA [1]: −2.37
Change from overall baseline (pain intensity, NRS), descriptive statistics [1]: −1.63
Change from period baseline (pain intensity, NRS), ANCOVA [1]: −2.25
Change from period baseline (pain intensity, NRS), descriptive statistics [1]: −1.74
Change from overall baseline (pain intensity, NRS), ANCOVA [2]: −2.04
Change from overall baseline (pain intensity, NRS), descriptive statistics [2]: −2.55
Change from period baseline (pain intensity, NRS), ANCOVA [2]: −1.78
Change from period baseline (pain intensity, NRS), descriptive statistics [2]: −2.18
Change from overall baseline (pain intensity, NRS), ANCOVA [3]: −2.39
Change from overall baseline (pain intensity, NRS), descriptive statistics [3]: −2.35
Change from period baseline (pain intensity, NRS), ANCOVA [3]: −1.78
Change from period baseline (pain intensity, NRS), descriptive statistics [3]: −1.91
Change from overall baseline (pain intensity, NRS), ANCOVA [4]: −2.68
Change from overall baseline (pain intensity, NRS), descriptive statistics [4]: −2.74
Change from period baseline (pain intensity, NRS), ANCOVA [4]: −1.78
Change from period baseline (pain intensity, NRS), descriptive statistics [4]: −1.63
Change from overall baseline (pain intensity, NRS), ANCOVA [5]: −2.0
Change from overall baseline (pain intensity, NRS), descriptive statistics [5]: −2.07
Change from period baseline (pain intensity, NRS), ANCOVA [5]: −1.9
Change from period baseline (pain intensity, NRS), descriptive statistics [5]: −2.01
Dizziness (all doses examined): reported more frequently compared to placebo

Read-outs that look alike come from different tables or passages of the source.
